Experimental findings from patent US20010049374A1 (priority 1997, published 2001) are described below.

For the assay, the target named is T1, urokinase enzyme Abbokinase (Homo sapiens, UniProt P00749).
T1 construct: purchased Abbott Laboratories, Abbott Park, Ill
The assay can be described thus: Determination of urokinase inhibition (Abbokinase, chromogenic substrate S-2444). In kind it is biochemical.

Where [1] appears, read: Inhibitory potency against urokinase, substrate S-2444 at 200 μM, enzyme 2-3 nM, pH 7.4, 405 nm, read-out: IC50.

Like-named read-outs stand apart in the source and are kept apart here.

As a reminder, the IC50 is the midpoint of a concentration-inhibition curve. Consider `COc1ccc2ccc(C(=N)N)cc2c1OCC(N)=O` [Example 4], for which the IC50 under setting [1] amounted to 500 nM.
On to `[H]/N=C(/N)c1ccc2cc(C=Cc3ccc4c(c3)CCNC4)ccc2c1` [Example 112, (E)-6-[2-(1,2,3,4-tetrahydro-6-isoquinolinyl)ethenyl]-2-naphthalenecarboximidamide], for which, under “IC50”, the IC50 was 450 nM.
As for `COc1ccc2ccc(C(=N)N)cc2c1Nc1ccccc1` [Example 68, 7-Methoxy-8-(N-2-phenylamino)-2-naphthalenecarboximidamide], the IC50 under setting [1] came to 1740 nM.
The same measure, in the same setting: as for `[H]/N=C(/N)c1ccc2cc(C=Cc3ccccc3)ccc2c1` [Example 41, (E)-6-[2-(Phenyl)ethenyl]-2-naphthalenecarboximidamide], the figure is 2380 nM.
Take “(±)6-(3-Phenyloxiranyl)-2-naphthalenecarboximidamide [Example 44]”: the IC50 (pH 7.4, read-out: IC50) was found to be 350 nM.
For `COc1ccc2ccc(C(=N)N)cc2c1-c1cnn(S(C)(=O)=O)c1` [Example 87, 7-Methoxy-8-[1-(methylsulfonyl)-1H-4-pyrazolyl]-2-naphthalenecarboximidamide], under “IC50”, half-maximal inhibition (IC50) required 630 nM.
For the setting “IC50”, `N=C(N)c1ccc2cc(C3CC3c3ccccc3)ccc2c1` (centres unmarked) [Example 97, 6-(2-phenyl-1-cyclopropyl)-2-naphthalenecarboximidamide] displayed an IC50 of 1310 nM.
As for `N=C(N)c1ccc2cc(C#Cc3ccc4c(c3)CCNC4)ccc2c1` [Example 127, 6-[(1,2,3,4-tetrahydro-6-isoquinolinyl)ethynyl]-2-naphthalenecarboximidamide], the IC50 (IC50) is 85 nM.
